Measurements as given in ChEMBL document CHEMBL3797186, “Single Residue Substitutions That Confer Voltage-Gated Sodium Ion Channel Subtype Selectivity in the NaV1.7 Inhibitory Peptide GpTx-1” (J Med Chem, 2016).

Chains of the proteins cited; added tags and fusions are not shown.
UniProt Q15858, whole entry: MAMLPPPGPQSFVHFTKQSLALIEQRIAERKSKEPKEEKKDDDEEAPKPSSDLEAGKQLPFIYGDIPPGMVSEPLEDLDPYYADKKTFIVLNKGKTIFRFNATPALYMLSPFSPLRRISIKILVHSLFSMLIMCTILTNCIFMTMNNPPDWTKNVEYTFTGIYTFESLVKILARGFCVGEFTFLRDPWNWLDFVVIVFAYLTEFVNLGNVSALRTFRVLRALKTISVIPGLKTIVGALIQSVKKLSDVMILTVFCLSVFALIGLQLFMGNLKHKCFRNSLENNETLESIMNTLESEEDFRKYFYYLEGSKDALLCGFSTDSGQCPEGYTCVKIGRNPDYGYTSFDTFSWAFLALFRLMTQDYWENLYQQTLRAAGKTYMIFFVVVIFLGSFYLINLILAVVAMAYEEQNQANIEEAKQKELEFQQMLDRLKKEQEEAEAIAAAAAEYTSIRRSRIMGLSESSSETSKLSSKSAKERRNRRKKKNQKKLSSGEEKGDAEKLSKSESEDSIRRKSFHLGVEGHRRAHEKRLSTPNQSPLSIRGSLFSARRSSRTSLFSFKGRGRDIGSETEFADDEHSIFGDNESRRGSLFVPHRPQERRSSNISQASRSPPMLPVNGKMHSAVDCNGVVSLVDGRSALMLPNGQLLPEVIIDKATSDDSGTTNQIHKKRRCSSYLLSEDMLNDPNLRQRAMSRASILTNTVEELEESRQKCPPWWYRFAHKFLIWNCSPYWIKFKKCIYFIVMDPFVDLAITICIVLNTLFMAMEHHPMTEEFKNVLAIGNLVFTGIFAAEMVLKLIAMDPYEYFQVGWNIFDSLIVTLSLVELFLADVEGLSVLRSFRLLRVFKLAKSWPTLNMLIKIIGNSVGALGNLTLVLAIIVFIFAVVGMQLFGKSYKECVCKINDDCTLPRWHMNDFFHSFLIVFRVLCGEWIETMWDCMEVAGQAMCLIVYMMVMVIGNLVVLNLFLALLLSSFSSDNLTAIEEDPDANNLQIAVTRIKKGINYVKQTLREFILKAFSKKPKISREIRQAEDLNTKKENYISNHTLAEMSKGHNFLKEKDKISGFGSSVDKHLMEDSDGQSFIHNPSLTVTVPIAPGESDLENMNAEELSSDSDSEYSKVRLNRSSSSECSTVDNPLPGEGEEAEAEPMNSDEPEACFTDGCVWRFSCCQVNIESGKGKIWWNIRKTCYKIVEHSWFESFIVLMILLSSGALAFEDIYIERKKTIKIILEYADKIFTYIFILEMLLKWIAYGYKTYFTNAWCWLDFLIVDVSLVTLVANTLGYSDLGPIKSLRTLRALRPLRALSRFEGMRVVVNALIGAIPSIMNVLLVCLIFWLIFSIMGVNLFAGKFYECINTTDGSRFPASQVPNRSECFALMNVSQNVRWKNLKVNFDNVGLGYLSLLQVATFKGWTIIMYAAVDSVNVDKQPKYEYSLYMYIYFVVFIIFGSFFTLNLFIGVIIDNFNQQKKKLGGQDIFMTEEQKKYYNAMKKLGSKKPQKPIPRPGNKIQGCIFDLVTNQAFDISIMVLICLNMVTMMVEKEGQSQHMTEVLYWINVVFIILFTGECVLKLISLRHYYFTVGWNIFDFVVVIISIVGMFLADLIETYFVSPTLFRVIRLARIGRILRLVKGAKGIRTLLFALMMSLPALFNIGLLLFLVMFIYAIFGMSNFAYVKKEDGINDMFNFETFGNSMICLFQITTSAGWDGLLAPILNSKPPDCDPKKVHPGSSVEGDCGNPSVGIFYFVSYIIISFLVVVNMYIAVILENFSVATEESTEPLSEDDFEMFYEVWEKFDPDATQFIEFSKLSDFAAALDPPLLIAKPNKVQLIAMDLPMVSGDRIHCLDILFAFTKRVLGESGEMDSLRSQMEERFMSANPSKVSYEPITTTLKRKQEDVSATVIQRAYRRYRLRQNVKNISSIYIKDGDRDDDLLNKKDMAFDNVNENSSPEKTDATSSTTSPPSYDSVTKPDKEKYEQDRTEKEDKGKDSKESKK

Target: Sodium channel protein type 9 subunit alpha (Homo sapiens, UniProt Q15858)
Test: Inhibition of human Nav1.7 expressed in HEK293 cells assessed as inward peak current by ion-works quattro patch clamp electrophysiology method
Format: cell-based

## CC[C@H](C)[C@@H]1NC(=O)[C@@H]2CSSC[C@@H]3NC(=O)[C@H](C(C)C)NC(=O)[C@H](CC(C)C)NC(=O)[C@H](CC(N)=O)NC(=O)[C@@H]4CCCN4C(=O)[C@H](CCCNC(=N)N)NC(=O)[C@H](CSSC[C@H](NC(=O)[C@@H](N)CC(=O)O)C(=O)N[C@@H](CC(C)C)C(=O)NCC(=O)N[C@@H](Cc4ccccc4)C(=O)N[C@@H](CCSC)C(=O)N[C@@H](CCCNC(=N)N)C(=O)N[C@@H](CCCCN)C(=O)N2)NC(=O)[C@H](CSSC[C@@H](C(=O)N[C@@H](CCCCN)C(=O)N[C@@H](Cc2ccc(O)cc2)C(=O)N[C@H](C(=O)N[C@@H](Cc2ccccc2)C(N)=O)C(C)C)NC(=O)[C@H](Cc2cccc4ccccc24)NC(=O)[C@H](CCCCN)NC(=O)[C@H](Cc2cnc[nH]2)NC(=O)[C@H]([C@@H](C)O)NC(=O)[C@H](CCCNC(=N)N)NC(=O)[C@H](CO)NC3=O)NC(=O)[C@H](CCCCN)NC(=O)[C@H](CC(=O)O)NC(=O)[C@H](CC(N)=O)NC(=O)[C@H](CC(=O)O)NC(=O)[C@@H]2CCCN2C1=O
  IC50: 400 nM
